Reference: ChEMBL document CHEMBL4368878 (Medchemcomm, 2018)
This is a selection: effects in other tests are not listed, and their absence says nothing.

Amino acid sequences for entries named in this document (tags omitted).
UniProt P21554, whole entry: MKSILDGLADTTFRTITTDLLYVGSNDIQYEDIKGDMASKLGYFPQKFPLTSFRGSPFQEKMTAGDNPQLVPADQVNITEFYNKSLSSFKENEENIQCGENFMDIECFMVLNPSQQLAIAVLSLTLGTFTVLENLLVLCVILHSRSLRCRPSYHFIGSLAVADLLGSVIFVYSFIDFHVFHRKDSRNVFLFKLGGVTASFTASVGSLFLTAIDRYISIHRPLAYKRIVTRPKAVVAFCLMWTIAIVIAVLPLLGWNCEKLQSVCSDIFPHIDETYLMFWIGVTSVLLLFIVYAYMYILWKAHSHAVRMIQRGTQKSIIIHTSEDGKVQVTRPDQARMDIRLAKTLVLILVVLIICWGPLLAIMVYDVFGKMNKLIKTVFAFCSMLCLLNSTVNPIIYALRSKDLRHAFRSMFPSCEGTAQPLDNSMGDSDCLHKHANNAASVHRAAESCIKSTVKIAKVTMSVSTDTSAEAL
UniProt P34972, whole entry: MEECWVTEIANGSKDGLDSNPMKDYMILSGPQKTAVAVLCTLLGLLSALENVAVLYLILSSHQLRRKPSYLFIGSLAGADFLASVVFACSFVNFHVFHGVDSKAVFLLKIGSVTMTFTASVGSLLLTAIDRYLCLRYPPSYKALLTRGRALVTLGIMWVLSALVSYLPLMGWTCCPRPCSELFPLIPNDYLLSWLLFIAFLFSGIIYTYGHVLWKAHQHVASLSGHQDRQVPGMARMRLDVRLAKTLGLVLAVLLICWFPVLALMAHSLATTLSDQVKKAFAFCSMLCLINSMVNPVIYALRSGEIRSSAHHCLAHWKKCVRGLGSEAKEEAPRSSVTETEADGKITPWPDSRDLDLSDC

How the values were obtained:
[1] = target: T1, Cannabinoid receptor 1 (Homo sapiens, UniProt P21554); assay: Displacement of [3H]CP55940 from recombinant human CB1 receptor expressed in HEK293 cell membranes measured after 90 mins
How it was run: (§1)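 Membranes from HEK-293 cells stably expressing human recombinant CB1 (Bmax 2.5 pmol/mg protein) or CB2 (Bmax 4.7 pmol/mg protein). [3H]-CP-55,940 was used at 0.14 nM for CB1 (Kd 0.18 nM) and 0.084 nM for CB2 (Kd 0.31 nM), with increasing test concentrations, 90 min at 30 °C. Non-specific binding was set with 10 μM WIN 55212-2. Ki came from IC50 via Cheng–Prusoff; n ≥ 3, mean ± SEM. SI = CB1 Ki / CB2 Ki.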

[2] = target: T1, Cannabinoid receptor 1; assay: Displacement of [3H]CP55940 from recombinant human CB1 receptor expressed in HEK293 cell membranes at 10 uM measured after 90 mins relative to control; settings: hek293, 1.5 h
[3] = target: Cannabinoid receptor 2 (Homo sapiens, UniProt P34972); assay: Displacement of [3H]CP55940 from recombinant human CB2 receptor expressed in HEK293 cell membranes measured after 90 mins; how it was run: as §1

SMILES: Cc1ccc2c(c1)nc(Cn1nnc3ccccc31)n2CCN(C)C
- Ki [1]: > 10 µM
- inhibition (INH) [2]: 19%
- Ki [3]: > 10 µM
